Experimental data: ChEMBL document CHEMBL4000201, “Benzylideneoxymorphone: A new lead for development of bifunctional mu/delta opioid receptor ligands” (Bioorg Med Chem Lett, 2017)
Active and inactive are the calls of the source. The calls are words filed in the database; no cut-off is given here.

Sequences of proteins named here, by UniProt entry; tags and fusion partners are left off.
UniProt P35372, whole entry, looked up: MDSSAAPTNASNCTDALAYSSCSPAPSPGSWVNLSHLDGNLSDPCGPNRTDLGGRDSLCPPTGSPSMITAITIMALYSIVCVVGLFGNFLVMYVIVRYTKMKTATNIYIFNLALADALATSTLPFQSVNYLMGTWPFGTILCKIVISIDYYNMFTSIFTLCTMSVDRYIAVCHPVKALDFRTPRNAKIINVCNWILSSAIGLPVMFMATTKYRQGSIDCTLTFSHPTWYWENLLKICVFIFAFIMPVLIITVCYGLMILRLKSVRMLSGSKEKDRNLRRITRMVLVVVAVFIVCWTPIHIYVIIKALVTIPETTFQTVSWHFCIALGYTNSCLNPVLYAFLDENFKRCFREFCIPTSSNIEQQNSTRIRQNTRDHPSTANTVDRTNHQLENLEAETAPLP
UniProt P33533, whole entry, looked up: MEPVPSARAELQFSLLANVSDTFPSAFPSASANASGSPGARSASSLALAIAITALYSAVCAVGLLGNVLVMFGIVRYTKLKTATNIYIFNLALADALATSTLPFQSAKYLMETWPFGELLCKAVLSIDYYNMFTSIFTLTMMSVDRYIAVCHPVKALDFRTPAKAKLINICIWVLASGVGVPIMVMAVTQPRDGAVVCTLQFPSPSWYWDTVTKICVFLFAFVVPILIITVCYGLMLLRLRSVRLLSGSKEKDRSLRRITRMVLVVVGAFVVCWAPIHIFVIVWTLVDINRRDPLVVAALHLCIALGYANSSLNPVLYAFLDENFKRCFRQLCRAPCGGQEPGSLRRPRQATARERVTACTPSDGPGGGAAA

How the values were obtained:
Mu-type opioid receptor = Mu-type opioid receptor (Homo sapiens, UniProt P35372); experiment: Agonist activity at MOR (unknown origin) by [35S]GTPgamma binding assay relative to DAMGO
[1] = biological target: Delta-type opioid receptor (Rattus norvegicus) (UniProt P33533); experiment: Antagonist activity at DOR in rat C6 cells assessed as inhibition of SNC80-induced [35S]GTPgamma binding
Mus musculus [2] = experiment: Antinociceptive activity in Swiss-Webster mouse assessed as increase in tail-flick latency at 50 mg/kg, sc administered 30 mins prior to test measured at 70 mins post dose by tail-flick test
Mus musculus [3] = experiment: Antinociceptive activity in Swiss-Webster mouse assessed as increase in response latency 50 mg/kg, sc administered 30 mins prior to test measured up to 70 mins post dose by hot plate test
Mus musculus [4] = experiment: Antinociceptive activity in Swiss-Webster mouse assessed as maximum time required for maximum possible effect at 20 to 60 mg/kg, sc after 30 mins measured every 20 mins for 90 mins by hot plate test
Mus musculus [5] = experiment: Antinociceptive activity in Swiss-Webster mouse assessed as increase in tail-flick latency at 60 mg/kg, sc administered 30 mins prior to test measured up to 70 mins post dose by tail-flick test
Mus musculus [6] = experiment: Antinociceptive activity in Swiss-Webster mouse assessed as increase in response latency 50 mg/kg, sc measured 30 mins post dose by hot plate test
Mus musculus [7] = experiment: Antinociceptive activity in Swiss-Webster mouse assessed as increase in tail-flick latency at 60 mg/kg, sc administered 30 mins prior to test measured at 30 mins post dose by tail-flick test

Row | SMILES | Emax (Mu-type opioid receptor) [%] | Ke [1] [nM] | Activity (Mus musculus [2]) | Activity (Mus musculus [3]) | Tmax (Mus musculus [4]) [min] | Activity (Mus musculus [5]) | Activity (Mus musculus [6]) | Activity (Mus musculus [7])
1 | O=C1/C(=C/c2ccccc2)C[C@@]2(O)[C@H]3Cc4ccc(O)c5c4[C@@]2(CCN3CCc2ccccc2)[C@H]1O5 | 52 |  |  |  |  |  |  | 
2 | CN1CC[C@]23c4c5ccc(O)c4O[C@H]2C(=O)/C(=C/c2ccccc2)C[C@@]3(O)[C@H]1C5 | 39 | 138 | Active | Active | 50 | Active | Active | Active
3 | O=C1/C(=C/c2ccccc2)C[C@@]2(O)[C@H]3Cc4ccc(O)c5c4[C@@]2(CCN3CCCc2ccccc2)[C@H]1O5 | < 10 |  |  |  |  |  |  | 
